Measurements reported in patent US20090099250A1, “BENZOCYCLOHEPTENE DERIVATIVES AS ESTROGENS HAVING SELECTIVE ACTIVITY” (priority 2007, published 2009).

Chains of the proteins cited; added tags and fusions are not shown. Residues count along the entry.
UniProt Q92731, 223-530, stated change not applied: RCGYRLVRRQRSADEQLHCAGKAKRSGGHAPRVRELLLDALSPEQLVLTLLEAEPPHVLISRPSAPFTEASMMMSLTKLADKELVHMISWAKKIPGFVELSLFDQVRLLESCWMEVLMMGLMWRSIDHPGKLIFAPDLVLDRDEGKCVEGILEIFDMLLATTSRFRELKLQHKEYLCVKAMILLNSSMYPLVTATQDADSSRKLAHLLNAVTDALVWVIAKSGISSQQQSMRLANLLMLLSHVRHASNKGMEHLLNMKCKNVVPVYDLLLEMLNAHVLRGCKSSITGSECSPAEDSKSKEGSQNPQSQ

Target: GAL4-human estrogen receptor β (ERβ) ligand-binding domain chimera (Homo sapiens, UniProt Q92731)
Test: GAL4 chimera luciferase reporter assay in CHO K1 cells, ERb
Conditions: Table 3

SMILES: C[C@]12CCC3c4ccc(O)cc4CCC3C1CC[C@@H]2O (stereo partly shown) [Estradiol]
- GAL4-assay, Potency at ERb (% of E2): 100.0 % of E2
